A word on the IC50: it is the concentration that gives 50% inhibition.

Sequences of proteins named here, by UniProt entry; tags and fusion partners are left off.
UniProt Q9Y233, whole entry, species assumed: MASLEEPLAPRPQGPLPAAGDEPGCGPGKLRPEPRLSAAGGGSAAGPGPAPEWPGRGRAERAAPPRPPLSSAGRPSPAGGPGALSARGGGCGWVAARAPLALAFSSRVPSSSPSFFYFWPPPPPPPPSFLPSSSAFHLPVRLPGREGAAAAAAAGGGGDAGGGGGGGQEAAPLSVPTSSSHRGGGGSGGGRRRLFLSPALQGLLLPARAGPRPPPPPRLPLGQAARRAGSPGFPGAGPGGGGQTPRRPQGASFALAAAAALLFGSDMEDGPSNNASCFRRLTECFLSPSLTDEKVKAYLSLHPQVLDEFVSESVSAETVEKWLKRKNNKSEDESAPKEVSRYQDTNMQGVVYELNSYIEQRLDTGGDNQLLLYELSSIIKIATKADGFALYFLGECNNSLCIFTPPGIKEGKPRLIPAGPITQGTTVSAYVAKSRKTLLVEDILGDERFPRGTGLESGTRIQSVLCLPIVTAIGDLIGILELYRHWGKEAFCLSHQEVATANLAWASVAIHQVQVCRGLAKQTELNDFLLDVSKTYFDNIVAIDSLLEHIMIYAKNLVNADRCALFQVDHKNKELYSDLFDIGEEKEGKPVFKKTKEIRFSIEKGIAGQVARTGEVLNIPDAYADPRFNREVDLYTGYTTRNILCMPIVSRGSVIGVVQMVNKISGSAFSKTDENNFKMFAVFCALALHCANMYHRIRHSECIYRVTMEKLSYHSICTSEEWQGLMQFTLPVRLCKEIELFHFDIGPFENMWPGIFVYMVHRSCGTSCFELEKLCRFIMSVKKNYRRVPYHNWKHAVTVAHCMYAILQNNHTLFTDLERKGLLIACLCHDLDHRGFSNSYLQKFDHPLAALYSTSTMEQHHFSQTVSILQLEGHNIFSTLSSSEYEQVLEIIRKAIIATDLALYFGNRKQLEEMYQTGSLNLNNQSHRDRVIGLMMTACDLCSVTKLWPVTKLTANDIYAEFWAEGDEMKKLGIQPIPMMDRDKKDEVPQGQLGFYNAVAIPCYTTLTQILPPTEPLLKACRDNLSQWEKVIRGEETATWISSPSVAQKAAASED
UniProt O00408, whole entry, species assumed: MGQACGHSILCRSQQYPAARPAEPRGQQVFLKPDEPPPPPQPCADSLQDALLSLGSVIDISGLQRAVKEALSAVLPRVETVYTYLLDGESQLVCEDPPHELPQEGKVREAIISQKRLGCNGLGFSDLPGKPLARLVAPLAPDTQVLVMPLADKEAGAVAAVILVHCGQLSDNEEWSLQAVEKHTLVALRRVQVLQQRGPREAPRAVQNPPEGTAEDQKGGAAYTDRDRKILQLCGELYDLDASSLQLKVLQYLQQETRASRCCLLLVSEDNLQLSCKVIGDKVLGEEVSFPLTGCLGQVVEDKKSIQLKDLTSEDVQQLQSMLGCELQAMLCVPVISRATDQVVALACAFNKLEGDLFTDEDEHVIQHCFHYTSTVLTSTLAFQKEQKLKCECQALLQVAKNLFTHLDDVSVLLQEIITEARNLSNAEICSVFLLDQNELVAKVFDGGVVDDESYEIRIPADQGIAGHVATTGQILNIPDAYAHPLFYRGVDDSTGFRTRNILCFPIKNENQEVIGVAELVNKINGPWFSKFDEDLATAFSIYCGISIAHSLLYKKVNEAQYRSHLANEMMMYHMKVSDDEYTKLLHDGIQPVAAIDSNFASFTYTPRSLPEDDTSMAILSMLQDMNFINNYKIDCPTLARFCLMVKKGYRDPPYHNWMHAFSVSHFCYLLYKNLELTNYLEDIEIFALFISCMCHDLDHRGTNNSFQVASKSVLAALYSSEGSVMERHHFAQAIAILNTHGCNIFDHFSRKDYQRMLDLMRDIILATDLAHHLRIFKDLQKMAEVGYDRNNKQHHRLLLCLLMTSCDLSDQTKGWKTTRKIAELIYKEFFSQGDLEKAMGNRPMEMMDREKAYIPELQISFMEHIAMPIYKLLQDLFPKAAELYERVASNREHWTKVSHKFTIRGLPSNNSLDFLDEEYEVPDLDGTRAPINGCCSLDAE

Molecules are shown by their SMILES. Like-named read-outs stand apart in the source and are kept apart here.

Holding throughout (format): biochemical
One assay deals with PDE10 (Homo sapiens, UniProt Q9Y233). As to the kind of experiment: PDE10 assay with fluorescent substrate (IMAP, fluorescence polarization). Background: Fluorescence polarisation rises when a labelled molecule tumbles more slowly, as on binding a larger partner.
Assay [1] deals with T1, PDE2A (Homo sapiens, UniProt O00408). Put plainly: PDE 2A assay with fluorescent substrate (IMAP, fluorescence polarization). Conditions: read-out: PDE2 IC50.
Assay [2] addresses T1, PDE2A. Put plainly: Radioactive PDE2 assay ([3H]cAMP SPA).
The target of the next assay is PDE 10A (Homo sapiens, UniProt Q9Y233). Put plainly: Radioactive PDE10 assay ([3H]cAMP SPA).
The mark [3] stands for this setting: IMAP fluorescent, read-out: PDE10 IC50.

For `Cc1ccc(OC2COCC2O)cc1-c1nnc2c(C)nc3ccc(C4CC4)nc3n12` (racemic) [Example 57], the IC50 was found to be 45 nM on PDE10 (setting [3]) and 6 nM at PDE2A [1]. Turning to `Cc1nc2ccc(C3CC3)nc2n2c(-c3cc(C4(O)CCOCC4O)ccc3F)nnc12` (racemic) [Example 105], the half-maximal inhibitory concentration (IC50) on PDE2A [1] was found to be 23 nM. Same read-out and setting: as for `Cc1nc2ccc(C3CC3)nc2n2c(-c3cc(OC4COCC4O)ccc3Cl)nnc12` (single isomer, unassigned) [Example 56a], the figure is 8 nM; as for `Cc1nc2ccc(C3CC3)nc2n2c(-c3cc(OC4COCC4O)ccc3Cl)nnc12` (single isomer, unassigned) [Example 56b], 1 nM.

`Cc1ccc(OC2COCC2O)cc1-c1nnc2c(C)nc3ccc(C4CC4)nc3n12` (single isomer, unassigned) [Example 57a]: the figures for the IC50 on PDE10 (setting [3]) and on PDE2A [1] were 167 nM and 12 nM, respectively. Turning to `Cc1ccc(OC2COCC2O)cc1-c1nnc2c(C)nc3ccc(C4CC4)nc3n12` (single isomer, unassigned) [Example 57b], the 50% inhibitory concentration (IC50) at PDE10 (setting [3]) amounted to 91 nM; at PDE2A [1], 3 nM. `Cc1nc2ccc(C3CC3)nc2n2c(-c3cc(OC4COCC4O)ccc3Cl)nnc12` (single isomer, unassigned) [Example 58a]: the IC50 at PDE2A [1] came out at 54 nM.

Take `Cc1nc2ccc(C3CC3)nc2n2c(-c3cc(C4(O)CCOCC4O)ccc3F)nnc12` (single isomer, unassigned) [Example 105a]: the IC50 at PDE2A [1] came to 104 nM.

Regarding `Cc1nc2ccc(C3CC3)nc2n2c(-c3cc(C4(O)CCOCC4O)ccc3F)nnc12` (single isomer, unassigned) [Example 105b], the half-inhibitory concentration (IC50) at PDE2A [1] turned out to be 38 nM. Take `Cc1nc2cccnc2n2c(-c3cc(O)ccc3Cl)nnc12` [Example 1]: the half-maximal inhibitory concentration (IC50) at PDE2A [2] was found to be 16 nM; on PDE2A [1] it was 41 nM.

On to `Cc1nc2ccc(C3CC3)nc2n2c(-c3cc(O)ccc3F)nnc12` [Example 5], for which, on PDE2A [1], the IC50 was found to be 3 nM. For the compound `Cc1ccc(O)cc1-c1nnc2c(C)nc3cccnc3n12` [Example 10], the half-maximal inhibitory concentration (IC50) at PDE10 (setting [3]) was 254 nM; on PDE2A [1] it was 229 nM. Take `Cc1nc2cccnc2n2c(-c3cc(OCCC(C)(C)O)ccc3Cl)nnc12` [Example 14]: the figures for the concentration for half-maximal inhibition (IC50) at PDE2A [2] and at PDE 10A were 202 nM and 3580 nM, respectively. On to `Cc1nc2cccnc2n2c(-c3cc(OCC(C)O)ccc3Cl)nnc12` (stereo not shown) [Example 16], for which the half-inhibitory concentration (IC50) on PDE10 (setting [3]) turned out to be 8700 nM; at PDE2A [2], 58 nM; at PDE2A [1], 98 nM; at PDE 10A it was 1880 nM. As to `Cc1nc2cccnc2n2c(-c3cc(OC[C@@H](C)O)ccc3Cl)nnc12` [Example 17], the half-maximal inhibitory concentration (IC50) on PDE10 (setting [3]) was 10200 nM; on PDE2A [2] it was 98 nM; on PDE2A [1], 162 nM; at PDE 10A, 5720 nM. On the same counts, the results for `Cc1nc2cccnc2n2c(-c3cc(OC[C@H](C)O)ccc3Cl)nnc12` [Example 18] are 8420 nM, 71 nM, 90 nM and 3010 nM.

On to `Cc1nc2cccnc2n2c(-c3cc(OC4CCOCC4)ccc3Cl)nnc12` [Example 20], for which the IC50 at PDE2A [2] was 28 nM; on PDE2A [1] it was 77 nM. Consider `Cc1nc2cccnc2n2c(-c3cc(OC4CCOC4)ccc3Cl)nnc12` (stereo not shown) [Example 22], for which, on PDE10 (setting [3]), the IC50 stood at 9320 nM.

For `Cc1nc2cccnc2n2c(-c3cc(O[C@@H]4CCOC4)ccc3Cl)nnc12` [Example 23], the IC50 at PDE10 (setting [3]) worked out at 9190 nM; on PDE 10A it was 5100 nM. Regarding `Cc1nc2cccnc2n2c(-c3cc(O[C@H]4CCOC4)ccc3Cl)nnc12` [Example 24], the concentration for half-maximal inhibition (IC50) at PDE 10A stood at 6690 nM. As for `Cc1ccc2nc(C)c3nnc(-c4cc(OCCCO)ccc4Cl)n3c2n1` [Example 27], the figures for the IC50 at PDE2A [2] and on PDE2A [1] were 4 nM and 18 nM, respectively. On to `Cc1ccc2nc(C)c3nnc(-c4cc(OCCO)ccc4Cl)n3c2n1` [Example 28], for which the values for the IC50 on PDE10 (setting [3]), on PDE2A [2] and at PDE2A [1] were 299 nM, 9 nM and 20 nM, respectively. In the case of `Cc1ccc2nc(C)c3nnc(-c4cc(OC5CCOCC5)ccc4Cl)n3c2n1` [Example 32], the 50% inhibitory concentration (IC50) was determined as 6700 nM at PDE10 (setting [3]), 3 nM at PDE2A [2], 26 nM on PDE2A [1] and 1760 nM on PDE 10A.

As for `Cc1nc2ccc(C3CC3)nc2n2c(-c3cc(OC4CCOCC4)ccc3Cl)nnc12` [Example 32a], the half-maximal inhibitory concentration (IC50) on PDE2A [1] turned out to be 6 nM. Consider `Cc1ccc2nc(C)c3nnc(-c4cc(OCCCOC(F)(F)F)ccc4Cl)n3c2n1` [Example 33], for which the IC50 worked out at 3420 nM at PDE10 (setting [3]) and 2500 nM at PDE 10A.

Take `Cc1ccc2nc(C)c3nnc(-c4cc(OC[C@H](C)O)ccc4Cl)n3c2n1` [Example 34]: the half-maximal inhibitory concentration (IC50) stood at 2140 nM at PDE10 (setting [3]) and 1890 nM at PDE 10A. The matching figures for `Cc1ccc2nc(C)c3nnc(-c4cc(OC[C@@H](C)O)ccc4Cl)n3c2n1` [Example 35]: 1480 nM and 1300 nM. On the same counts, the results for `Cc1nc2cccnc2n2c(-c3cc(OC4CCC(O)C4)ccc3Cl)nnc12` (stereo not shown) [Example 40] are 8710 nM and 3470 nM. Regarding `Cc1ccc2nc(C)c3nnc(-c4cc(O[C@H]5CCOC5)ccc4Cl)n3c2n1` [Example 43], the values for the half-inhibitory concentration (IC50) on PDE10 (setting [3]) and at PDE2A [1] were 3010 nM and 57 nM, respectively. Consider `Cc1nc2ccc(C3CC3)nc2n2c(-c3cc(OCC(C)(C)O)ccc3Cl)nnc12` [Example 45], for which the IC50 against PDE10 (PDE10 IC50, IMAP fluorescent) was 1490 nM. On to `Cc1ccc2nc(C)c3nnc(-c4cc(OCC(C)(C)O)ccc4Cl)n3c2n1` [Example 46], for which the 50% inhibitory concentration (IC50) on PDE10 (setting [3]) stood at 1040 nM. Take `Cc1ccc(OCC(C)(C)O)cc1-c1nnc2c(C)nc3ccc(C4CC4)nc3n12` [Example 48]: the concentration for half-maximal inhibition (IC50) at PDE10 (setting [3]) was found to be 1520 nM. Regarding `Cc1ccc(OCC(C)(C)O)cc1-c1nnc2c(C)nc3ccc(C(C)C)nc3n12` [Example 51], the IC50 on PDE10 (setting [3]) was found to be 2150 nM. The same measure, in the same setting: as for `CCC(O)c1ccc(Cl)c(-c2nnc3c(C)nc4ccc(C)nc4n23)c1` (stereo not shown) [Example 62], the figure is 1300 nM. On to `Cc1nc2cccnc2n2c(-c3cc(CCC(C)(C)O)ccc3F)nnc12` [Example 65], for which the IC50 at PDE2A [1] stood at 214 nM. `Cc1ccc2nc(C)c3nnc(-c4cc(C(C)(C)O)ccc4Cl)n3c2n1` [Example 71]: the half-inhibitory concentration (IC50) on PDE10 (setting [3]) stood at 2080 nM. On to `Cc1nc2ccc(C3(C)CC3)nc2n2c(-c3cc(C(C)(C)O)ccc3F)nnc12` [Example 72], for which the IC50 on PDE10 (setting [3]) is 2860 nM. For the compound `Cc1nc2ccc(C(C)C)nc2n2c(-c3cc(C(C)(C)O)ccc3Cl)nnc12` [Example 77], the 50% inhibitory concentration (IC50) at PDE2A [1] is 4 nM. Take `Cc1ccc(C(C)(C)O)cc1-c1nnc2c(C)nc3cc(C(C)C)cnc3n12` [Example 79]: the concentration for half-maximal inhibition (IC50) on PDE10 (setting [3]) is 305 nM. For the compound `Cc1nc2ccc(C3CC3)nc2n2c(-c3cc(C4(O)CCC4)ccc3Cl)nnc12` [Example 88], on PDE10 (setting [3]), the IC50 turned out to be 302 nM.

Take `Cc1ccc2nc(C)c3nnc(-c4cc(C5(O)CCC5)ccc4Cl)n3c2n1` [Example 89]: the IC50 on PDE2A [1] was 18 nM. As for `Cc1nc2ccc(C(F)(F)F)nc2n2c(-c3cc(C4(O)CCOCC4)ccc3Cl)nnc12` [Example 96], the half-maximal inhibitory concentration (IC50) at PDE10 (setting [3]) was determined as 5940 nM. For the compound `Cc1nc2ccc(C(F)(F)F)nc2n2c(-c3cc(C4(O)CCOC4)ccc3F)nnc12` (stereo not shown) [Example 96c], the half-inhibitory concentration (IC50) at PDE2A [1] is 591 nM. For the compound `Cc1nc2ccc(C3CC3)nc2n2c(-c3cc(C(C)(C)CO)ccc3F)nnc12` [Example 101], on PDE2A [1], the 50% inhibitory concentration (IC50) was found to be 47 nM. Turning to `Cc1nc2ccc(C(F)(F)F)nc2n2c(-c3cc(C(C)(C)O)ccc3Cl)nnc12` [Example 103b], the IC50 on PDE2A [1] was found to be 100 nM.

(Values after patent publication US20140045856A1, “4-Methyl-2,3,5,9,9b-pentaaza-cyclopenta[a]naphthalenes” (BOEHRINGER INGELHEIM INTERNATIONAL GMBH, priority 2012, published 2014).)
